This series in a line: soluble on expression in E. coli; label from the status in PepcDB or PDB records.

From the DeepSol protein solubility set come the findings set out here.

For the sequence “GTEPTTAFNLFVGNLNFNKSAPELKTGISDVFAKNDLAVVDVRIGMTRKFGYVDFESAEDLEKALELTGLKVFGNEIKLEKPKGKDSKKERDARTLLAKNLPYKVTQDELKEVFEDAAEIRLVSKDGKSKGIAYIEFKTEADAEKTFEEKQGTEIDGRSISLYYTGEPKGEGLEHHHHHH”, the “soluble on expression in E. coli” value was “soluble”.
On to “HHHHHHHHHHMEELNIDFDVFKKRIELLYSKYNEFEGSPNSLLFVLGSSNAENPYQKTTILHNWLLSYEFPATLIALVPGKVIIITSSAKAKHLQKAIDLFKDPESKITLELWQRNNKEPELNKKLFDDVIALINSAGKTVGIPEKDSYQGKFMTEWNPVWEAAVKENEFNVIDISLGLSKVWEVKDVNEQAFLSVSSKGSDKFMDLLSNEMVRAVDEELKITNAKLSDKIENKIDDVKFLKQLSPDLSALCPPNYKFNFDLLDWTYSPIIQSGKKFDLRVSARSTNDQLYGNGCILASCGIRYNNYCSNITRTFLIDPSEEMANNYDFLLTLQKEIVTNILKPGRTPKEVYESVIEYIEKTKPELVPNFTKNIGSLIGLEFRDSNFILNVKNDYRKIQRGDCFNISFGFNNLKDSQSANNYALQLADTVQIPLDETEPPRFLTNYTKAKSQISFYFNNEEEDNNKKKSSPATKVPSKPDRNSKILRTKLRGEARGGAEDAQKEQIRKENQKKLHEKLEKNGLLRFSAADANGPDSEPRQYFKKYESYVRDSQLPTNIRDLRIHVDWKSQTIILPIYGRPVPFHINSYKNGSKNEEGEYTYLRLNFNSPGSSGGISKKVEELPYEESADNQFVRSITLRSKDGDRMSETFKQIADLKKEATKREQERKALADVVQQDKLIENKTGRTKRLDQIFVRPNPDTKRVPSTVFIHENGIRFQSPLRTDSRIDILFSNIKNLIFQSCKGELIVVIHIHLKNPILMGKKKIQDVQFYREASDMSVDETGGGRRGQSRFRRYGDEDELEQEQEERRKRAALDKEFKYFADAIAEASNGLLTVENTFRDLGFQGVPNRSAVFCMPTTDCLVQLIEPPFLVINLEEVEICILERVQFGLKNFDMVFVYKDFNKPVTHINTVPIESLDFLKQWLTDMDIPYTVSTINLNWATIMKSLQDDPYQFFLDGGWNFLATGSDDEASDESEEEVSEYEASEDDVSDESAFSEDEEGSEVDDDISGDESEDYTGDESEEGEDWDELEKKAARADRGANFRD”, for which the “soluble on expression in E. coli” value is “not soluble”.
